Results on 3 molecules are retold here after patent US11028095B2, “Spiro-lactam and bis-spiro-lactam NMDA receptor modulators and uses thereof” (Aptinyx Inc., priority 2016, dated 2021).

Amino acid sequences for entries named in this document (tags omitted). Residues count along the entry.
UniProt Q12879, 23-1464 limits assumed: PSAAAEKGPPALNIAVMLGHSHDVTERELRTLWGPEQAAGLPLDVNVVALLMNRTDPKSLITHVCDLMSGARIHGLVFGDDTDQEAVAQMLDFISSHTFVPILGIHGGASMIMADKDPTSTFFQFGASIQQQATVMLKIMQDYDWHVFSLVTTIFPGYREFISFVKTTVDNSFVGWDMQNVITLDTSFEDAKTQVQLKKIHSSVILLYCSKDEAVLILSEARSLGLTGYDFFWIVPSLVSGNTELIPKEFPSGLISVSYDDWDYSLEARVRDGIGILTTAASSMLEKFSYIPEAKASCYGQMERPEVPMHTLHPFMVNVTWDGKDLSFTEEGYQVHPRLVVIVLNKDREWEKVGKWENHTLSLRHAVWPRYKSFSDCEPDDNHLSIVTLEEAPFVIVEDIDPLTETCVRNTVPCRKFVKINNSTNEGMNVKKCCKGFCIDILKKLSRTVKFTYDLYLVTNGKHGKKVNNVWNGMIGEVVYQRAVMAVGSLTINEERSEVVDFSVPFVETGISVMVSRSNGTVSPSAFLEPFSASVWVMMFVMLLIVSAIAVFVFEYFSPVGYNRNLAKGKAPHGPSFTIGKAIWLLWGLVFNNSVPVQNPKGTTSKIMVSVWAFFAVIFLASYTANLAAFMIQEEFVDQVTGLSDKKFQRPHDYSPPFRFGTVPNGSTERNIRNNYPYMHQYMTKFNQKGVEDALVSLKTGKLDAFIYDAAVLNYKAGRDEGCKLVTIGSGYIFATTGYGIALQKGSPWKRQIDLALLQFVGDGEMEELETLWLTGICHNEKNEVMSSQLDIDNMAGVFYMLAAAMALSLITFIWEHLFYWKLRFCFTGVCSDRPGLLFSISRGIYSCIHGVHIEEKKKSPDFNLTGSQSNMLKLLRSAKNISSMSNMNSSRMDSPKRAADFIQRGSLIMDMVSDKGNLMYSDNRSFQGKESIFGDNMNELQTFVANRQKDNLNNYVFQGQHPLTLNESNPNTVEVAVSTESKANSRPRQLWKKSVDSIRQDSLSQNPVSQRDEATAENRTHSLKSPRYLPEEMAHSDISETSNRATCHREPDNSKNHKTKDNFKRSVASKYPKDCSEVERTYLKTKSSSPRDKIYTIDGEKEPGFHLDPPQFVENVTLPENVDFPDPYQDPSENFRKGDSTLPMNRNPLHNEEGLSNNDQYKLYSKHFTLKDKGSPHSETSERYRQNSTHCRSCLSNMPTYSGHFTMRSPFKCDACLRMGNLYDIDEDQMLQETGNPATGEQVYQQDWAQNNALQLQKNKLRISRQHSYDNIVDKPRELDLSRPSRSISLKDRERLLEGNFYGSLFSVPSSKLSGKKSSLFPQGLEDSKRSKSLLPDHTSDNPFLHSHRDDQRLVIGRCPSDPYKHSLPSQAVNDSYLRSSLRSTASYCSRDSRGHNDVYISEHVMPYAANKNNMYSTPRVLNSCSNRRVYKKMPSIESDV
UniProt Q13224, 27-1484 limits assumed: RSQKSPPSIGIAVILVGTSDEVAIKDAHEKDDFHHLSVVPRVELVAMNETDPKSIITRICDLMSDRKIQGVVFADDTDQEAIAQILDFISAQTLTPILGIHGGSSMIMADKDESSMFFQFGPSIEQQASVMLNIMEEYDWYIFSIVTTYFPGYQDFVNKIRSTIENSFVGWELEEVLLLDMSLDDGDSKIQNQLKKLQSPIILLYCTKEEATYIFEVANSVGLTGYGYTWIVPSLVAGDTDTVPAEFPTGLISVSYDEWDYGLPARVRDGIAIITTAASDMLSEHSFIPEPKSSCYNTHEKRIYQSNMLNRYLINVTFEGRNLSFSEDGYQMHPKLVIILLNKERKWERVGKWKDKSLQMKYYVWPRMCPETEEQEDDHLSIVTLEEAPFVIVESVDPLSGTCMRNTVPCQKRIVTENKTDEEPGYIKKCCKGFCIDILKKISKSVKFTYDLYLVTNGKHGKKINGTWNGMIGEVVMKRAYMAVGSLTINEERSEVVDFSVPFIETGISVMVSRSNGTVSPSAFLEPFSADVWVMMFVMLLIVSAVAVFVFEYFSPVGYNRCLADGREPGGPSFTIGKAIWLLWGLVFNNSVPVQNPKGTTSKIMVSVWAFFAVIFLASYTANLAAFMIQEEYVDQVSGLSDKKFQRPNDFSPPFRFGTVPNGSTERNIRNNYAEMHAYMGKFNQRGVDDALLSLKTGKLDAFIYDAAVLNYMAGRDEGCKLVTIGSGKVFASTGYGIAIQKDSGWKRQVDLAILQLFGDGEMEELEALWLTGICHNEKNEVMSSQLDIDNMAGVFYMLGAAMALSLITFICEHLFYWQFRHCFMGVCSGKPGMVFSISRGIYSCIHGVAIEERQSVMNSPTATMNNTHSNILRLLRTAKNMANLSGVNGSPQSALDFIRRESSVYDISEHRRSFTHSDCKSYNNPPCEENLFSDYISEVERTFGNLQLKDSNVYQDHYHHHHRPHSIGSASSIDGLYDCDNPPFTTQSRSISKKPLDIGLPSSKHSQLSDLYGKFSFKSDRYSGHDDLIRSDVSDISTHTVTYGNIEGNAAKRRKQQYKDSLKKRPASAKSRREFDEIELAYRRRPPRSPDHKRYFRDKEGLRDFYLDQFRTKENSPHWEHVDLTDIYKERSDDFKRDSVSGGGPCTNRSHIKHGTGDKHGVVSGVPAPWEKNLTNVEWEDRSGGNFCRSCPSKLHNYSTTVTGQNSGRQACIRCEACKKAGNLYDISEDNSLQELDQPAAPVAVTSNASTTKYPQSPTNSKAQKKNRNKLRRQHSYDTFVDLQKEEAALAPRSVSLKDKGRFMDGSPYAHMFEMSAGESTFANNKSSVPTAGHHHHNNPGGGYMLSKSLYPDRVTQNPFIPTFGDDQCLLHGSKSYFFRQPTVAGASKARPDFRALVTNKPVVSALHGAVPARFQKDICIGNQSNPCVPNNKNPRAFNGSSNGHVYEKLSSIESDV
UniProt O15399, 28-1336 limits assumed: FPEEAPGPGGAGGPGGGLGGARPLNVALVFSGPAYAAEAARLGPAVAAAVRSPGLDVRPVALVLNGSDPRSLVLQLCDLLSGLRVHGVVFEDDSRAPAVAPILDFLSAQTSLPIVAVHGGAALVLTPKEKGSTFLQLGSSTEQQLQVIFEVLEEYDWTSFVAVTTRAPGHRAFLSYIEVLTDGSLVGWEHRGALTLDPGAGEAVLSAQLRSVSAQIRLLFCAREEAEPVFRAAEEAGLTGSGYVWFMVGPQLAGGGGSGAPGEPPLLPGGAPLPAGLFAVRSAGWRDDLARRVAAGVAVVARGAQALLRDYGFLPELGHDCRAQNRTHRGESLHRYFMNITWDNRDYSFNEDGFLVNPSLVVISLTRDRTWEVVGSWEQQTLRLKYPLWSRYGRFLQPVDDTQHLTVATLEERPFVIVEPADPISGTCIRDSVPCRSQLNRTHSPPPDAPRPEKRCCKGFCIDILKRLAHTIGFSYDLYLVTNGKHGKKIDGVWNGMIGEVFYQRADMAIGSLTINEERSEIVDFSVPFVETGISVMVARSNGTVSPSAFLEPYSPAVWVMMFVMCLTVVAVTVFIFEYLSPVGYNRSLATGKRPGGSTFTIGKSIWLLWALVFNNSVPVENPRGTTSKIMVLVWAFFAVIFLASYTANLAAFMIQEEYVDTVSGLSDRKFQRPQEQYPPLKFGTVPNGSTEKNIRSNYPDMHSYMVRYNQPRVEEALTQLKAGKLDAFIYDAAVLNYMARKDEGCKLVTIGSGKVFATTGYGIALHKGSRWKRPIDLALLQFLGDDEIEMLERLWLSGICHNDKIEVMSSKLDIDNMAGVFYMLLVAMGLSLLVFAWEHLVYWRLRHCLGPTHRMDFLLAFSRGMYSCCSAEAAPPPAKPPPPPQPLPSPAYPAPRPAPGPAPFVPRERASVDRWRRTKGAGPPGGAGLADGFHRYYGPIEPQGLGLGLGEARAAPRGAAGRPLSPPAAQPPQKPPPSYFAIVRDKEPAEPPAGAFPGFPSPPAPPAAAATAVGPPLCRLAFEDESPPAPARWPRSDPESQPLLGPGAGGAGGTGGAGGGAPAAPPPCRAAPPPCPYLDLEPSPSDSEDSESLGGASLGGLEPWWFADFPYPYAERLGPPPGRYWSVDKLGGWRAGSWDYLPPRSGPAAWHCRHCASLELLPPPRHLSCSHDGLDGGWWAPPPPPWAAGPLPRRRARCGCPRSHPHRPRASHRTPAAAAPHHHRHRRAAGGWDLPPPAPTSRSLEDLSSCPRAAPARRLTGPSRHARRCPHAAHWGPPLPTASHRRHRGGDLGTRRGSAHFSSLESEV
UniProt Q14957, 20-1233 limits assumed: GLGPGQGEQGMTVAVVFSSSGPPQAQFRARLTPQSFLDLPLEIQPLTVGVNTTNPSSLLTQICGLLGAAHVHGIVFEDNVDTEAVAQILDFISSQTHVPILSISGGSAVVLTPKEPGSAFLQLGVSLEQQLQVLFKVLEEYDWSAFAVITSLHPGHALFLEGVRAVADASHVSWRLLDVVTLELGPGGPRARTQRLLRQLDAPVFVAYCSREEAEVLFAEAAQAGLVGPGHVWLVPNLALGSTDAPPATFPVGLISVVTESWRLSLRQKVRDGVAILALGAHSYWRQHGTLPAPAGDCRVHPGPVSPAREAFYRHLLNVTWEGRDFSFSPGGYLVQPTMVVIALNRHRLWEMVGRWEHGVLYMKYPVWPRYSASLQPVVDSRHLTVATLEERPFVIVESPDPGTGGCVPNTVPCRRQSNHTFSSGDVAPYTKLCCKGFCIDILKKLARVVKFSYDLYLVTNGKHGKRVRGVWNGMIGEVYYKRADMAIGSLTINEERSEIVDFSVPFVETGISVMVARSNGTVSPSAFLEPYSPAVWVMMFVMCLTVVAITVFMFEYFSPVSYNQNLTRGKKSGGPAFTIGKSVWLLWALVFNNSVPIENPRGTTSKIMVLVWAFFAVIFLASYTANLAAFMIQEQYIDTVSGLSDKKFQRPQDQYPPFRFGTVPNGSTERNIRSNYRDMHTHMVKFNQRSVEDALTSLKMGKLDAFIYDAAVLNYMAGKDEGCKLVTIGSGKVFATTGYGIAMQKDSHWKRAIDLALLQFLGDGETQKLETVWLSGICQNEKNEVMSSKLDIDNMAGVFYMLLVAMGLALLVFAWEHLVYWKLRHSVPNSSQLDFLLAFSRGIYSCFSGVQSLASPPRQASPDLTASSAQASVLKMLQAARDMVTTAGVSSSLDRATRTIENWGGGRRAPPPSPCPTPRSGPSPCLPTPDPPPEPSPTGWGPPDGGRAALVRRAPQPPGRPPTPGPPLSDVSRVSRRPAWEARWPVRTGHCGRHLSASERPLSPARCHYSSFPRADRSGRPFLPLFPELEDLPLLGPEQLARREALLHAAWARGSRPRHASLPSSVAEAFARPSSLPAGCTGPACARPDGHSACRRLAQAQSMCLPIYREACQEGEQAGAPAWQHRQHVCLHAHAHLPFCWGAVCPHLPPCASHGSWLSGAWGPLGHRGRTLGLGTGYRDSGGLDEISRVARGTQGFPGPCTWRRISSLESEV

Each structure is given as a SMILES string.

Data set [1] addresses NMDAR2A expressing HEK cell membranes (Homo sapiens, UniProt Q12879). The data set can be described thus: NMDAR agonist assay, [3H]MK-801 binding, NMDAR2A. Particulars: 50 μM glutamate; for EC50: read-out: NMDAR2A: log EC50 (converted), [3H]MK-801 binding.
The target of data set [2] is NMDAR2B expressing HEK cell membranes (Homo sapiens, UniProt Q13224). The data set can be described thus: NMDAR agonist assay, [3H]MK-801 binding, NMDAR2B. As to conditions: 50 μM glutamate; for EC50: read-out: NMDAR2B log EC50 (converted), [3H]MK-801 binding.
A further data set in a line: IV pharmacokinetics. Particulars: Sprague Dawley rats, 2 mg/kg, normal saline. As for the experimental part:
Sprague Dawley rats were dosed intravenously using a normal saline formulation containing 2 mg/kg of the compounds identified in the below table. The table below summarizes the results of the IV pharmacokinetics.

Data set [3] is described as follows: Oral pharmacokinetics (plasma, brain, CSF). As to conditions: Sprague Dawley rats, per os, 10 mg/kg. As for the experimental part: In another experiment, Sprague Dawley rats were dosed per os using a normal saline formulation containing 10 mg/kg of the compounds identified in the table below. Plasma, brain, and CSF samples were analyzed at various time points over a 24 hour period. The table below summarizes the results of the oral pharmacokinetics.

The target in data set [4] is NMDAR2D expressing HEK cell membranes (Homo sapiens, UniProt O15399). Briefly: NMDAR agonist assay, [3H]MK-801 binding, NMDAR2D. Particulars: 50 μM glutamate.
For data set [5], the target named is NMDAR2C expressing HEK cell membranes (Homo sapiens, UniProt Q14957). The data set can be described thus: NMDAR agonist assay, [3H]MK-801 binding, NMDAR2C. Particulars: 50 μM glutamate.

For orientation: EC50 means the concentration that produces a half-maximal response. As for `CC(C)(C)OC(=O)N1CC2(CNC2=O)CC12CNC2=O` (single isomer, unassigned) [AY-2], in data set [1], the “NMDAR2A: % maximal [3H]MK-801 binding relative to 1 mM glycine” value is listed as “− (−=0)” and the EC50 was > 100 nM. Moreover, in data set [2], the “NMDAR2B: % maximal [3H]MK-801 binding relative to 1 mM glycine” value is “+ (<100%=+)” and the EC50 was < 1 nM.
One may read the Vss as a proportionality between amount in the body and measured concentration, not a real space. A lower Vss goes with little distribution into tissue. For orientation: Tmax means the time at which the peak concentration occurs. One may read the Cmax as the peak of the concentration-time curve. In “IV pharmacokinetics”, `CC(C)(C)OC(=O)N1CC2(CNC2=O)CC12CNC2=O` (single isomer, unassigned) [AY-3] had an AUClast of 3552.4 ng·h/mL, a C0 of 3159.4 ng/mL, a Cl of 9.4 mL/min/kg and a T1/2 of 6.11 h. Moreover, in the data set “IV pharmacokinetics”, the Vss stood at 1.03 L/kg. Moreover, in data set [3], the “% F” value is 50% and the AUClast amounted to 8863.3 ng·h/mL. Besides, the “CSF Cmax” value in data set [3] (CSF) is 277 ng/mL. For the same molecule, the “Brain Cmax” value in data set [3] (brain) is listed as 125.3 ng/mL. Also, the Tmax in data set [3] (normal saline) worked out at 0.83 h. For the same molecule, in data set [3] (plasma), the Cmax worked out at 2716 ng/mL. The “NMDAR2D: % maximal [3H]MK-801 binding relative to 1 mM glycine” value in data set [4] (relative to 1 mM glycine) is “+ (<100%=+)”. Also, the EC50 in data set [4] (read-out: NMDAR2D column B: log EC50 (converted), [3H]MK-801 binding) is < 1 nM. Also, the “NMDAR2C A: % maximal [3H]MK-801 binding relative to 1 mM glycine” value in data set [5] (relative to 1 mM glycine) is “− (−=0)”. Also, in data set [5] (read-out: NMDAR2C column B: log EC50 (converted), [3H]MK-801 binding), the EC50 is > 100 nM. Moreover, in data set [1], the “NMDAR2A: % maximal [3H]MK-801 binding relative to 1 mM glycine” value is listed as “+ (<100%=+)” and the EC50 is < 1 nM. Also, in data set [2], the “NMDAR2B: % maximal [3H]MK-801 binding relative to 1 mM glycine” value is recorded as “+ (<100%=+)” and the EC50 is < 1 nM.
With `CC(C)(C)OC(=O)N1CC2(CNC2=O)CC12CNC2=O` (single isomer, unassigned) [AY-4], in data set [1], the “NMDAR2A: % maximal [3H]MK-801 binding relative to 1 mM glycine” value is “+ (<100%=+)” and the EC50 is < 1 nM. Moreover, the “NMDAR2B: % maximal [3H]MK-801 binding relative to 1 mM glycine” value in data set [2] was “+ (<100%=+)”.
